From patent publication US20090099157A1, “TETRAHYDRO-PYRAZOLO-PYRIDINE THIOETHER MODULATORS OF CATHEPSIN S” (priority 2007, published 2009)

By UniProt entry, the sequences of proteins in these tests, tags left out. Residues count along the entry.
UniProt P25774, 115-331: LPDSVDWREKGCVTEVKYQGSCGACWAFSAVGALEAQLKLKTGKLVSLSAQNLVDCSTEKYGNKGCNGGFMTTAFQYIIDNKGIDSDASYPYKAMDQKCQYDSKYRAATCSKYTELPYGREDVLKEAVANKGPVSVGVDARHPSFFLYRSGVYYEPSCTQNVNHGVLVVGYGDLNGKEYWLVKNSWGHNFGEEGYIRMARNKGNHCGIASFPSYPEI

Biological target: Recombinant human cathepsin S (CatS) (Homo sapiens, UniProt P25774)
Experiment: biochemical

Structure (SMILES) | IC50 [nM]
CC1CCN(CCSc2cc(-c3nn(CCCN4CCC(N5CCCC5=O)CC4)c4c3CN(S(C)(=O)=O)CC4)ccc2C(F)(F)F)CC1 [Example 10, 1-{1-[3-(5-Methanesulfonyl-3-{3-[2-(4-methyl-piperidin-1-yl)-ethylsulfanyl]-4-trifluoromethyl-phenyl}-4,5,6,7-tetrahydro-pyrazolo[4,3-c]pyridin-1-yl)-propyl]-piperidin-4-yl}-pyrrolidin-2-one] | 110
CS(=O)(=O)N1CCc2c(c(-c3ccc(C(F)(F)F)c(SCCN4CCC(F)(F)C4)c3)nn2CC(O)CN2CCC(Oc3ncccn3)CC2)C1 (stereo not drawn) [Example 820, 1-{3-[3-{[2-(3,3-Difluoropyrrolidin-1-yl)ethyl]sulfanyl}-4-(trifluoromethyl)phenyl]-5-(methylsulfonyl)-4,5,6,7-tetrahydro-1H-pyrazolo[4,3-c]pyridin-1-yl}-3-[4-(pyrimidin-2-yloxy)piperidin-1-yl]propan-2-ol] | 65
CC1(C)CCN(CC(O)Cn2nc(-c3ccc(C(F)(F)F)c(SCCN4CCC(F)CC4)c3)c3c2CCN(S(C)(=O)=O)C3)CC1 (stereo not drawn) [Example 562, 1-(4,4-Dimethylpiperidin-1-yl)-3-{3-[3-{[2-(4-fluoropiperidin-1-yl)ethyl]sulfanyl}-4-(trifluoromethyl)phenyl]-5-(methylsulfonyl)-4,5,6,7-tetrahydro-1H-pyrazolo[4,3-c]pyridin-1-yl}propan-2-ol] | 220
OC(CN1CCN(c2ccccc2)CC1)Cn1nc(-c2ccc(C(F)(F)F)c(SCCN3CCC(F)(F)C3)c2)c2c1CCNC2 (stereo not drawn) [Example 417, 1-{3-[3-{[2-(3,3-Difluoropyrrolidin-1-yl)ethyl]sulfanyl}-4-(trifluoromethyl)phenyl]-4,5,6,7-tetrahydro-1H-pyrazolo[4,3-c]pyridin-1-yl}-3-(4-phenylpiperazin-1-yl)propan-2-ol] | 560
CS(=O)(=O)N1CCc2c(c(-c3ccc(C(F)(F)F)c(SCCN4CCCC5CCCCC54)c3)nn2CCCN2CCC(N3CCCC3=O)CC2)C1 (stereo not drawn) [Example 12, 1-{1-[3-(5-Methanesulfonyl-3-{3-[2-(octahydro-quinolin-1-yl)-ethylsulfanyl]-4-trifluoromethyl-phenyl}-4,5,6,7-tetrahydro-pyrazolo[4,3-c]pyridin-1-yl)-propyl]-piperidin-4-yl}-pyrrolidin-2-one] | 140
CS(=O)(=O)N1CCc2c(c(-c3ccc(C(F)(F)F)c(SCC(=O)N4CCOCC4)c3)nn2CC(O)CN2CCC(N3CCOCC3)CC2)C1 (stereo not drawn) [Example 260, 1-[5-(Methylsulfonyl)-3-{3-[(2-morpholin-4-yl-2-oxoethyl)sulfanyl]-4-(trifluoromethyl)phenyl}-4,5,6,7-tetrahydro-1H-pyrazolo[4,3-c]pyridin-1-yl]-3-(4-morpholin-4-ylpiperidin-1-yl)propan-2-ol] | 70
CCOC(=O)NC1CCN(C(=O)CSc2cc(-c3nn(CCCN4CCC(N5CCCC5=O)CC4)c4c3CN(S(C)(=O)=O)CC4)ccc2C(F)(F)F)CC1 [Example 888, Ethyl {1-[({5-[5-(methylsulfonyl)-1-{3-[4-(2-oxopyrrolidin-1-yl)piperidin-1-yl]propyl}-4,5,6,7-tetrahydro-1H-pyrazolo[4,3-c]pyridin-3-yl]-2-(trifluoromethyl)phenyl}sulfanyl)acetyl]piperidin-4-yl}carbamate] | 60
CC(C)(C)OC(=O)N1CCCC(C(=O)NCCSc2cc(-c3nn(CC(O)CN4CCC(N5CCCC5=O)CC4)c4c3CN(S(C)(=O)=O)CC4)ccc2C(F)(F)F)C1 (stereo not drawn) [Example 122, 3-{2-[5-(1-{2-Hydroxy-3-[4-(2-oxo-pyrrolidin-1-yl)-piperidin-1-yl]-propyl}-5-methanesulfonyl-4,5,6,7-tetrahydro-1H-pyrazolo[4,3-c]pyridin-3-yl)-2-trifluoromethyl-phenylsulfanyl]-ethylcarbamoyl}-piperidine-1-carboxylic acid tert-butyl ester] | 330

Next, values leading:

IC50 [nM] | Structure (SMILES)
1100 | CS(=O)(=O)N1CCc2c(c(-c3ccc(C(F)(F)F)c(SCCN4CC[C@H](F)C4)c3)nn2C[C@@H](O)CN2CCCCCC2)C1 [Example 404, (2S)-1-Azepan-1-yl-3-{3-[3-({2-[(3S)-3-fluoropyrrolidin-1-yl]ethyl}sulfanyl)-4-(trifluoromethyl)phenyl]-5-(methylsulfonyl)-4,5,6,7-tetrahydro-1H-pyrazolo[4,3-c]pyridin-1-yl}propan-2-ol]
900 | CC(C)(O)C1CCN(CCSc2cc(-c3nn(C[C@@H](O)CN4CCCCC4)c4c3CN(S(C)(=O)=O)CC4)ccc2C(F)(F)F)CC1 [Example 602, (2S)-1-{3-[3-({2-[4-(1-Hydroxy-1-methylethyl)piperidin-1-yl]ethyl}sulfanyl)-4-(trifluoromethyl)phenyl]-5-(methylsulfonyl)-4,5,6,7-tetrahydro-1H-pyrazolo[4,3-c]pyridin-1-yl}-3-piperidin-1-ylpropan-2-ol]
1490 | O=C([C@H]1CCCO1)N1CCc2c(c(-c3ccc(C(F)(F)F)c(SCCN4CCC(F)CC4)c3)nn2CC(O)CN2CCCCC2)C1 (stereo partly drawn) [Example 520, 1-{3-[3-{[2-(4-Fluoropiperidin-1-yl)ethyl]sulfanyl}-4-(trifluoromethyl)phenyl]-5-[(2R)-tetrahydrofuran-2-ylcarbonyl]-4,5,6,7-tetrahydro-1H-pyrazolo[4,3-c]pyridin-1-yl}-3-piperidin-1-ylpropan-2-ol]
1080 | O=C(C1CCCN1C(=O)C(F)(F)F)N1CCc2c(c(-c3ccc(C(F)(F)F)c(SCCN4CCC(F)CC4)c3)nn2CC(O)CN2CCCCC2)C1 (stereo not drawn) [Example 856, 2,2,2-Trifluoro-1-{2-[3-{3-[2-(4-fluoro-piperidin-1-yl)-ethylsulfanyl]-4-trifluoromethyl-phenyl}-1-(2-hydroxy-3-piperidin-1-yl-propyl)-1,4,6,7-tetrahydro-pyrazolo[4,3-c]pyridine-5-carbonyl]-pyrrolidin-1-yl}-ethanone]
700 | O=C(CSc1cc(-c2nn(CC(O)CN3CCC(C(=O)N4CCCC4)CC3)c3c2CNCC3)ccc1C(F)(F)F)N1CCCC1 (stereo not drawn) [Example 410, 1-(3-{3-[(2-Oxo-2-pyrrolidin-1-ylethyl)sulfanyl]-4-(trifluoromethyl)phenyl}-4,5,6,7-tetrahydro-1H-pyrazolo[4,3-c]pyridin-1-yl)-3-[4-(pyrrolidin-1-ylcarbonyl)piperidin-1-yl]propan-2-ol]
130 | O=C1CCCN1C1CCN(CC(O)Cn2nc(-c3ccc(C(F)(F)F)c(SCCN4CCCCC4)c3)c3c2CCN(S(=O)(=O)Cc2ccccc2)C3)CC1 (stereo not drawn) [Example 237, 1-{1-[2-Hydroxy-3-(5-[(phenylmethyl)sulfonyl]-3-{3-[(2-piperidin-1-ylethyl)sulfanyl]-4-(trifluoromethyl)phenyl}-4,5,6,7-tetrahydro-1H-pyrazolo[4,3-c]pyridin-1-yl)propyl]piperidin-4-yl}pyrrolidin-2-one]
310 | O=C(c1cccs1)N1CCc2c(c(-c3ccc(C(F)(F)F)c(SCCN4CCC(F)CC4)c3)nn2CC(O)CN2CCCCC2)C1 (stereo not drawn) [Example 578, 1-{3-[3-{[2-(4-Fluoropiperidin-1-yl)ethyl]sulfanyl}-4-(trifluoromethyl)phenyl]-5-(2-thienylcarbonyl)-4,5,6,7-tetrahydro-1H-pyrazolo[4,3-c]pyridin-1-yl}-3-piperidin-1-ylpropan-2-ol]
100 | CS(=O)(=O)N1CCc2c(c(-c3ccc(C(F)(F)F)c(SCCN4CCOC(CO)C4)c3)nn2CC(O)CN2CCC(C(=O)N3CCCC3)CC2)C1 (stereo not drawn) [Example 850, 1-{3-[3-({2-[2-(Hydroxymethyl)morpholin-4-yl]ethyl}sulfanyl)-4-(trifluoromethyl)phenyl]-5-(methylsulfonyl)-4,5,6,7-tetrahydro-1H-pyrazolo[4,3-c]pyridin-1-yl}-3-[4-(pyrrolidin-1-ylcarbonyl)piperidin-1-yl]propan-2-ol]
120 | CS(=O)(=O)NC1CCN(CC(O)Cn2nc(-c3ccc(C(F)(F)F)c(SCCN4CCCCC4)c3)c3c2CCN(S(C)(=O)=O)C3)CC1 (stereo not drawn) [Example 710, N-(1-{2-Hydroxy-3-[5-(methylsulfonyl)-3-{3-[(2-piperidin-1-ylethyl)sulfanyl]-4-(trifluoromethyl)phenyl}-4,5,6,7-tetrahydro-1H-pyrazolo[4,3-c]pyridin-1-yl]propyl}piperidin-4-yl)methanesulfonamide]
280 | O=C(CO)N1CCc2c(c(-c3ccc(C(F)(F)F)c(SCCN4CCCCC4)c3)nn2CC(O)CN2CCCCC2)C1 (stereo not drawn) [Example 239, 1-[5-(Hydroxyacetyl)-3-{3-[(2-piperidin-1-ylethyl)sulfanyl]-4-(trifluoromethyl)phenyl}-4,5,6,7-tetrahydro-1H-pyrazolo[4,3-c]pyridin-1-yl]-3-piperidin-1-ylpropan-2-ol]
3140 | CS(=O)(=O)N1CCc2c(c(-c3ccc(C(F)(F)F)c(SCCN4CCC(NC(=O)CO)CC4)c3)nn2C[C@@H](O)CN2CCOCC2)C1 [Example 654, 2-Hydroxy-N-[1-(2-{[5-{1-[(2S)-2-hydroxy-3-morpholin-4-ylpropyl]-5-(methylsulfonyl)-4,5,6,7-tetrahydro-1H-pyrazolo[4,3-c]pyridin-3-yl}-2-(trifluoromethyl)phenyl]sulfanyl}ethyl)piperidin-4-yl]acetamide]
3820 | CN1CCN(CC(O)Cn2nc(-c3ccc(C(F)(F)F)c(SCCN4CCCC4)c3)c3c2CCN(S(C)(=O)=O)C3)CC1 (stereo not drawn) [Example 348, 1-(4-Methylpiperazin-1-yl)-3-[5-(methylsulfonyl)-3-{3-[(2-pyrrolidin-1-ylethyl)sulfanyl]-4-(trifluoromethyl)phenyl}-4,5,6,7-tetrahydro-1H-pyrazolo[4,3-c]pyridin-1-yl]propan-2-ol]
710 | CN(C)C1CCN(CC(O)Cn2nc(-c3ccc(C(F)(F)F)c(SCCN4CCCCC4)c3)c3c2CCN(S(C)(=O)=O)C3)CC1 (stereo not drawn) [Example 162, 1-[4-(Dimethylamino)piperidin-1-yl]-3-[5-(methylsulfonyl)-3-{3-[(2-piperidin-1-ylethyl)sulfanyl]-4-(trifluoromethyl)phenyl}-4,5,6,7-tetrahydro-1H-pyrazolo[4,3-c]pyridin-1-yl]propan-2-ol]
